The numbers were not newly measured in patent publication US10753947B2, “Methods for screening voltage-gated proteins” (D.E. Shaw Research, LLC, priority 2012, dated 2020), which cites them from elsewhere.

The chains behind the UniProt entries cited, without tags or fusion partners.
UniProt P22001, whole entry: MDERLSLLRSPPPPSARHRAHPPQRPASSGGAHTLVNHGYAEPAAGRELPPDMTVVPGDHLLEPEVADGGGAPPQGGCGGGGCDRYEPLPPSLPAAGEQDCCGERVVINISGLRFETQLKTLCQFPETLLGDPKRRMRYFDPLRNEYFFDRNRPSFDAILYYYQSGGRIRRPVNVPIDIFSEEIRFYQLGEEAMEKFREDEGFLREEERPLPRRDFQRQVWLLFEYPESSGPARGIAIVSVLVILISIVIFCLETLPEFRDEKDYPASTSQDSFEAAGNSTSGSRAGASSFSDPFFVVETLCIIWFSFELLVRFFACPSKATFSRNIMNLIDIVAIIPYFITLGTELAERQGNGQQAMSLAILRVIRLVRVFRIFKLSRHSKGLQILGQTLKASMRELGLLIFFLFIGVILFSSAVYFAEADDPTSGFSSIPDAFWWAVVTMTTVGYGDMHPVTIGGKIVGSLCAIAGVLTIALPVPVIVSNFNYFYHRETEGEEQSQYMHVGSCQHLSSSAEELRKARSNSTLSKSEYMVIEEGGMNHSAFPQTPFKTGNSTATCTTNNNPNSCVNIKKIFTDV

The structures appear in SMILES notation.

This series concerns the target Kv1.3 (Homo sapiens, UniProt P22001). To be noted: Table 4; read-out: IC50 Kv1.3; cited from earlier work.

As for `COc1ccc(CCCN2CCC(COC(c3ccccc3)c3ccccc3)CC2)cc1` [UK-78282], the IC50 was 280 nM.
